# Molecular target: human recombinant mGluR5 (Homo sapiens, UniProt P41594)
# The chains behind the UniProt entries cited, without tags or fusion partners. Residues count along the entry.
# UniProt P41594, 21-1212 limits assumed: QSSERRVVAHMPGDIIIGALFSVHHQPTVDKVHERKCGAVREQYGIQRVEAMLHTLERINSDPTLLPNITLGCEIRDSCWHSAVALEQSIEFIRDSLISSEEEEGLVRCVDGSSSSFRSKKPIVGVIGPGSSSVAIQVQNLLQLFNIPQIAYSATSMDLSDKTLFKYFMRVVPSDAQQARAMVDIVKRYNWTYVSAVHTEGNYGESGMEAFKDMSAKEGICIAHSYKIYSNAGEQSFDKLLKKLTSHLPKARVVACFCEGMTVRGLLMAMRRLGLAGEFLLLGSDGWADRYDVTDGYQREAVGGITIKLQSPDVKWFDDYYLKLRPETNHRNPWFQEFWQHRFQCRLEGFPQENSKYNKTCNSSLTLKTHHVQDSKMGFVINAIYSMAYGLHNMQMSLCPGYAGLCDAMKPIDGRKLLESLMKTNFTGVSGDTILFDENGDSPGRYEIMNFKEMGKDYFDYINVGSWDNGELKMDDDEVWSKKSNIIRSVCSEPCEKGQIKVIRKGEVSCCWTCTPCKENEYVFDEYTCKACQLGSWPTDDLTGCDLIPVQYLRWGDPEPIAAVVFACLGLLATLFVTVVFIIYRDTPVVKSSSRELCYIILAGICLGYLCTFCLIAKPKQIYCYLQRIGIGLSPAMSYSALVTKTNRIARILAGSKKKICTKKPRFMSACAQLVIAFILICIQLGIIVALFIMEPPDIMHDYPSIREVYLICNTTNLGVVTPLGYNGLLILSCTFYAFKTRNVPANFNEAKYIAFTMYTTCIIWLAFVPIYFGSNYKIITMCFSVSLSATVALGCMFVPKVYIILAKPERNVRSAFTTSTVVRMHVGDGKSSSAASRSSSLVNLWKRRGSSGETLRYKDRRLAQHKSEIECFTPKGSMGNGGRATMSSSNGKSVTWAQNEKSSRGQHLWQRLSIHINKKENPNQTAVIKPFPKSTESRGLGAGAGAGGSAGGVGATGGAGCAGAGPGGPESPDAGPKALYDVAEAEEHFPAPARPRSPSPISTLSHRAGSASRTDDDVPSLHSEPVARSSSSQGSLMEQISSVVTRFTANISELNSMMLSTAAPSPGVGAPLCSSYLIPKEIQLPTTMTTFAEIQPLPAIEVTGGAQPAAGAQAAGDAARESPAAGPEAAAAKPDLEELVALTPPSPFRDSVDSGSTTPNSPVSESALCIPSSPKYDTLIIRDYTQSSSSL
# Test: positive modulation of mGluR5, calcium based FLIPR assay in HEK 293 cells
# Details: HEK 293 cell line expressing human recombinant mGluR5; EC50 of the modulation of the glutamate response (glutamate approx. 5% basal stimulation); peak height of Ca release fluorescence signal
# Protocol: The positive modulation of mGluR5 is measured in a HEK 293 cell line expressing human recombinant mGluR5 and is detected with calcium based FLIPR assay. The cells are cultured with DMEM supplemented with 10% FCS, 2 μg/mL tetracycline, 100 μg/mL hygromycin and 500 μg/mL gneticin. The cell culture media is exchanged for tetracycline-free cell culture media 3-7 days before the assay. One day before the assay the cell culture medium is exchanged to DMEM without glutamine and phenol red and supplemented with 10% FCS, 100 μg/mL hygromycin and 500 μg/mL geneticin. On the assay day, the medium of the subconfluent cultures is removed and the cells are detached by addition of 2.5 ml EDTA (0.02%) per 175 cm2 culture flask for 1 minute. […]
# 20 μl of each compound solution are then transferred to the assay plate and the Ca2+ kinetic is measured to determine any intrinsic compound activity. After 5 min incubation in the FLIPR device, the second stimulation with 20 μl of glutamate in Ringer solution (glutamate concentration adjusted to approximately 5% basal stimulation of the maximal possible glutamate effect) is added and the kinetic Ca2+ response of the wells was measured for the modulation effect.
# The peak height of the Ca release related fluorescence signal (9-66) is used for the EC50. The EC50 of the modulation is calculated over a nonlinear regression with GraphPad Prism (Table 1).
compound,measurement,value
COc1cc(-c2nc(-c3ccc(F)cc3)nn2CC(=O)N2CCN(c3ccccn3)CC2)ccc1F,EC50,679 nM

# Reference: US8889677B2, “Substituted triazoles useful as mGlu5 receptor modulators” (Boehringer Ingellheim International GmbH, priority 2012, dated 2014)
